## Curated experimental data: properties

Source: data files of OPERA 2.9 (Mansouri et al.), github.com/kmansouri/OPERA.

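OPERA's authors assembled the values from existing databases and did not measure them anew. The files give a single number for a compound and property, which may rest on several reports. Conditions of the individual experiments are not part of the data. Where a salt, mixture or single isomer is drawn, the source does not say that exactly this form was tested. Some upstream entries may be estimates or bounds without being marked so.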

The melting point is given in degrees Celsius. Boiling points are in °C, nominally at 760 mmHg. The octanol-water partition coefficient is given as log10; larger values mean a more lipophilic compound. Solubility in water is on a log10 molar scale (set defined at 25 °C). Vapor pressure is log10 of mmHg; the set covers 15 to 30 °C, mostly 20 to 25 °C. The Henry's law constant is on a log10 scale in atm·m3/mol (set defined at 25 °C); higher favours air over water. fu is the fraction unbound in human plasma, from 0 to 1.

For Nc1ccc([N+](=O)[O-])cc1S(=O)(=O)[O-].[Na+] the data give logP 0.58 and log solubility -1.768 (log10 mol/L).
For CCCCCCOC(=O)C(C)C the data give logP 4.7 and log solubility -3.471 (log10 mol/L) and log vapor pressure 0.565 (log10 mmHg).
For O=S(=O)(N(CCO)CCO)C(F)(F)C(F)(F)C(F)(F)C(F)(F)F the data give mp 77.8 °C and logP 2.69 and log solubility -2.839 (log10 mol/L) and log vapor pressure -3.66 (log10 mmHg).
For Cc1ccc(S(=O)(=O)n2cc(-c3ncc(F)c(N[C@H]4C5CCC(CC5)[C@@H]4C(=O)O)n3)c3cc(F)cnc32)cc1 the data give mp 253.4 °C and log solubility -6.542 (log10 mol/L) and log vapor pressure -9.639 (log10 mmHg).
For CC(=O)OCC(C)OC(C)=O (stereo not drawn) the data give logP 0.8 and log vapor pressure -0.648 (log10 mmHg).
For CCOc1ccc(NC(=O)c2cc3ccccc3c(N=Nc3cc(Cl)c(Cl)cc3Cl)c2O)cc1 the data give logP 2.61 and log solubility -8.058 (log10 mol/L).
For CC(C)C1CCC(O)CC1 (stereo not drawn) the data give mp 50 °C and log vapor pressure -1.388 (log10 mmHg).
For CC(C)(C)C(=O)C(Oc1ccc(Cl)cc1)n1ccnc1 (stereo not drawn) the data give logP 3.83 and log solubility -3.703 (log10 mol/L) and log vapor pressure -5.143 (log10 mmHg).
For CC1=CCC(C(C)CC2CCCC2=O)CC1 (stereo not drawn) the data give mp -41.8 °C and log solubility -4.68 (log10 mol/L).
For CCCCCCCCCCC=O the data give logP 3.84 and log solubility -3.152 (log10 mol/L) and log vapor pressure -0.444 (log10 mmHg).
For CCOC(=O)C(=Cc1ccc(C=C(C(=O)OCC)C(=O)OCC)cc1)C(=O)OCC the data give mp 137 °C and logP 3.39 and log vapor pressure -8.091 (log10 mmHg).
For CC(C)CCCCCCCCCCCCCCCOC(=O)CCCCCCCCCCCCCCC(C)C the data give mp -3 °C and log solubility -7.086 (log10 mol/L).
For COc1ccc(CC(C)C=O)cc1 (stereo not drawn) the data give logP 2.4 and log solubility -2.231 (log10 mol/L) and log vapor pressure -2.648 (log10 mmHg).
For CC(=O)/C=C(\C)[C@@]12CCC[C@@]3(C)[C@@H]1CC[C@@]3(C)C2 the data give mp -22 °C and BP 340 °C and logP 5.56 and log solubility -4.999 (log10 mol/L) and log vapor pressure -5.634 (log10 mmHg).
For COc1ccc(COC(C)=O)cc1 the data give log solubility -2.466 (log10 mol/L) and log vapor pressure -0.983 (log10 mmHg).
For C=COCCOCCOCCOC=C the data give mp -12.6 °C and BP 252 °C and logP 1.81 and log vapor pressure -2.502 (log10 mmHg).
For C=C(C)C(=O)OCCOCCC[Si](C)(C)O[Si](C)(C)O[Si](C)(C)O[Si](C)(C)O[Si](C)(C)CCCC the data give log solubility -7.594 (log10 mol/L) and log vapor pressure -5.058 (log10 mmHg).
For COC(=O)c1cc(CO)nn1-c1ncccc1Cl the data give mp 102.5 °C and logP 3.143.
For Cc1cc(C2C(=O)Oc3c2cc(C(C)(C)C)cc3C(C)(C)C)cc(C)c1OP1Oc2cc(C(C)(C)C)cc(C(C)(C)C)c2C(C)c2c(cc(C(C)(C)C)cc2C(C)(C)C)O1 (stereo not drawn) the data give mp 180 °C and log solubility -8.222 (log10 mol/L).
For Clc1cc(Cl)c(Oc2cc(Cl)c(Cl)cc2Cl)c(Cl)c1 the data give mp 95 °C and log solubility -8.04 (log10 mol/L).
For O=C1CCCCCN1C(=O)c1cccc(C(=O)N2CCCCCC2=O)c1 the data give logP 1.775 and log solubility -3.958 (log10 mol/L).
For CCCCCCC(C=O)=Cc1ccccc1 the data give logP 5.1 and log solubility -5.012 (log10 mol/L) and log vapor pressure -3.387 (log10 mmHg) and plasma fu 0.009805.
For CCc1cccc2c3c([nH]c12)C(CC)(CC(=O)O)OCC3 (stereo not drawn) the data give log solubility -3.865 (log10 mol/L) and plasma fu 0.00875.
For CCCCCCCCCCCCC1CC(=O)N(C2CC(C)(C)NC(C)(C)C2)C1=O (stereo not drawn) the data give log solubility -4.81 (log10 mol/L) and log vapor pressure -6.374 (log10 mmHg).
For CC(C)[C@@H](C(=O)O)N1CCCNC1=O the data give mp 176.5 °C and logP 0.17 and log vapor pressure -6.337 (log10 mmHg).
For O=C(CCCCC(=O)N(CCO)CCO)N(CCO)CCO the data give BP 499 °C and logP -2.5 and log vapor pressure -4.87 (log10 mmHg) and Henry's law constant -8.097 (log10 atm·m3/mol).
For CC1CC(=O)CC(C)(C)C1 (stereo not drawn) the data give logP 2.4 and log vapor pressure -0.347 (log10 mmHg).
For C[C@@H]1C[C@H]2[C@@H]3CCC4=CC(=O)C=C[C@]4(C)[C@@]3(Cl)[C@@H](O)C[C@]2(C)[C@@]1(O)C(=O)CCl the data give logP 2.1 and log solubility -4.912 (log10 mol/L) and plasma fu 0.015.
For CCCCC(=O)OCC(=O)[C@H]1[C@H](C)C[C@H]2[C@@H]3C[C@H](F)C4=CC(=O)C=C[C@]4(C)[C@@]34O[C@H]4C[C@@]21C the data give mp 102.3 °C and logP 4.34 and log solubility -5.604 (log10 mol/L) and log vapor pressure -10.36 (log10 mmHg).

Extract of 2 entries:

Cc1cc(C2C(=O)Oc3c2cc(C(C)(C)C)cc3C(C)(C)C)cc(C)c1OP1Oc2cc(C(C)(C)C)cc(C(C)(C)C)c2C(C)c2c(cc(C(C)(C)C)cc2C(C)(C)C)O1 (stereo not drawn) is reported with mp 180 °C and log solubility -8.222 (log10 mol/L).
Nc1ccc([N+](=O)[O-])cc1S(=O)(=O)[O-].[Na+] is reported with logP 0.58 and log solubility -1.768 (log10 mol/L).